Antibody variant affinities, Ab-14 light chain, assay B

Values reported by Li et al. 2023, doi:10.1038/s41467-023-39022-2 (FLAb copy).

Antigen: PDVDLGDISGINAS, a 14-residue peptide of the SARS-CoV-2 spike HR2 region.

Each scFv is VH, a (GGGGS)3 linker, VL, as in the parent Ab-14, and differs from it in the CDRs of the light chain only.
VH: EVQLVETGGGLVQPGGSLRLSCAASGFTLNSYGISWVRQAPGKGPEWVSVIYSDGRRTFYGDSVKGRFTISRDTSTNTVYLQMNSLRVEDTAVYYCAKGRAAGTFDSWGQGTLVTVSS
VL: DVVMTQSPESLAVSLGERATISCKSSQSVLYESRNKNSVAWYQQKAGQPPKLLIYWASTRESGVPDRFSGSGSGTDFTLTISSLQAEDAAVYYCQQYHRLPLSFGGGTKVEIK

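The parent was found by panning a naive human phage display library on the peptide. The variants were designed computationally from a first round of random CDR variants and then made and measured. Their group label is 14L_GP_Gibbs (GP: Gaussian process model; Gibbs: Gibbs sampling; a sequence that several methods proposed may carry one label only). The assay is AlphaSeq: two haploid yeast populations carry antibody and antigen on their surface. After mating in shaken culture at 30 °C for 16 h, diploids were selected and their barcode pairs sequenced. The ratio of observed to expected reads was calibrated, replicate by replicate, on BCL2-family standards whose Kd was known from biolayer interferometry. Mating was done six times.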

Positions count from residue 1 of the parent VL; S25L puts L in place of S. Scale: log10 of Kd in nM, estimated from mating counts; low values are strong binders. The range of this assay differs from that of the first round, and the authors advise against merging the two.

changes | log10 Kd, replicates | empty controls
S25L/V29M/L30W/K36S/W56N/T59N/E61L | -0.27 / -0.16 / -0.12 / 0.14 / 0.08 / -0.06 | 1 of 18 (2.01)
S25L/S26Q/Q27G/V29E/Y31G/W56H/S58D | 0.01 / -0.12 / -0.13 / -0.21 / -0.24 / -0.03 | 0 of 18
S25C/S26A/S28W/L30D/E32G/W56D | 0.27 / 0.12 / 0.14 / -0.07 / 0.34 / 0.30 | 0 of 18
S25W/S28G/L30M/Y31G/W56N | 0.23 / 0.09 / 0.16 / 0.22 / 0.39 / 0.61 | 2 of 18 (2.53)
S25L/L30E/Y31V/E32L/W56N/S62A | -0.25 / -0.41 / -0.38 / -0.40 / -0.19 / -0.23 | 1 of 18 (4.33)
S25M/S26Q/Q27G/Y31M/E32L/K36C/W56Q/S62Q | 0.80 / 0.43 / 0.66 / 0.60 / 0.70 / 0.74 | 0 of 18
S25L/S26Q/V29E/L30E/N35Q/K36F/W56E/E61N/S62L | 0.95 / 0.68 / 0.38 / 0.53 / 0.84 / 0.68 | 2 of 18 (3.05)
S25H/L30D/N37A/W56D/E61M | 0.24 / -0.04 / -0.16 / -0.37 / -0.28 / 0.02 | 1 of 18 (4.10)
S25A/Q27N/V29N/K36G/W56N/E61L/S62H | 0.21 / 0.22 / 0.18 / 0.17 / 0.58 / 0.64 | 1 of 18 (2.48)
S25L/S26Q/S28Q/V29D/L30E/W56H/T59C/E61W/S62Q | 0.58 / 0.35 / 0.35 / 0.12 / 0.28 / 0.38 | 0 of 18
S25L/Q27P/L30N/Y31G/E32Q/W56H/S62Q/Q96D | 0.84 / 0.46 / 0.74 / 0.95 / 0.47 / 1.06 | 0 of 18
S25F/S26V/V29Q/L30D/W56Q/T59Q/S62Q | 0.01 / -0.14 / -0.16 / -0.30 / -0.20 / 0.01 | 3 of 18 (4.19)
K24W/S25L/L30E/E32Q/S38A/W56S | 0.44 / 0.03 / 0.04 / 0.18 / 0.72 / 0.28 | 1 of 18 (2.14)
K24I/S25L/Q27Y/V29E/S33D/N35M/W56N/T59Q/S62Q | 0.36 / 0.98 / 0.33 / 0.36 / 0.19 / 0.47 | 0 of 18
S25L/S26Q/Q27A/S28Q/V29Q/L30E/E32W/W56Q/S62D | -0.02 / -0.14 / -0.10 / -0.53 / -0.19 / -0.06 | 0 of 18
S25L/S26R/Q27W/V29M/W56N/T59Q/E61C | 0.32 / 0.10 / -0.18 / -0.06 / 0.00 / 0.15 | 1 of 18 (2.14)
S25L/S26Q/Q27C/V29E/Y31M/K36S/W56H/T59K/Q96D | 1.53 / 0.92 / 1.20 / 0.90 / 1.05 / 0.75 | 0 of 18
S26Q/Q27G/V29N/K36W/W56K/E61L/S62Q | 0.34 / 0.37 / 0.81 / 0.78 / 0.73 / 0.57 | 0 of 18
S25L/S33W/K36D/W56N/E61M | 0.39 / 0.53 / -0.04 / 0.22 / 0.48 / 0.17 | 0 of 18
S25W/Q27W/V29W/Y31L/N35V/K36W/W56N/T59L/E61L | 1.31 / 1.25 / 1.29 / 1.19 / 1.38 / 0.77 | 2 of 18 (2.70)
S25V/S26P/Q27G/S28E/V29N/W56E | -0.07 / 0.02 / -0.18 / -0.18 / 0.02 / 0.29 | 1 of 18 (1.29)
S25V/Q27G/S28L/V29G/E32G/S33Q/W56E/S62D | -0.11 / -0.19 / -0.15 / -0.41 / -0.09 / 0.00 | 1 of 18 (1.46)
S25L/L30W/Y31M/N37W/S38N/W56N/T59Y | -0.06 / -0.21 / -0.28 / -0.22 / -0.25 / 0.03 | 2 of 18 (2.47)
S25F/L30D/S33D/N35Q/W56N | 0.08 / 0.02 / -0.38 / -0.10 / -0.14 / -0.14 | 0 of 18
S25Y/Q27F/Y31E/K36S/S38A/W56N/S62E/Q96D | 1.13 / 1.17 / 1.70 / 1.37 / 2.10 / 1.51 | 0 of 18
S25M/L30W/S33Q/K36F/W56N/A57G/S62Q | 0.30 / 0.11 / 0.46 / 0.73 / 0.73 / 0.30 | 1 of 18 (2.63)
S25L/S26Q/V29W/E32G/K36A/W56N/T59Q/S62E | -0.07 / -0.17 / -0.08 / -0.18 / -0.10 / 0.01 | 1 of 18 (3.22)
S25L/S26Q/L30Q/N35V/S38A/W56Q/T59Q | 0.48 / 0.24 / 0.02 / 0.16 / -0.20 / 0.45 | 0 of 18
S25L/S28E/V29M/L30E/K36P/W56Q/T59E/E61C | -0.09 / -0.26 / -0.26 / -0.29 / -0.27 / -0.11 | 1 of 18 (2.95)
S25L/S26E/Q27F/L30D/S38A/W56E/S62K | -0.14 / 0.05 / -0.30 / -0.16 / -0.18 / 0.02 | 1 of 18 (2.60)
S25I/S28A/V29Y/W56Q/S58N/T59Y/S62Q | -0.04 / -0.40 / -0.62 / -0.49 / -0.01 / -0.26 | 1 of 18 (1.93)
K24L/S25L/V29S/L30G/S33Q/W56D/E61L | 0.13 / -0.28 / -0.38 / -0.30 / -0.04 / -0.22 | 0 of 18
Q27P/V29Q/S33E/N35M/K36D/W56N/T59Q | 0.57 / 0.22 / 0.05 / 0.28 / 0.64 / 0.47 | 1 of 18 (3.08)
S25L/S26Q/V29M/K36D/W56D/T59M/S103F | 0.39 / 0.25 / 0.12 / 0.14 / 0.36 / 0.43 | 0 of 18
S25V/S26Q/Q27G/V29Q/S38A/W56N/E61C/S62D | -0.25 / -0.34 / -0.37 / -0.51 / -0.37 / -0.20 | 3 of 18 (2.76)
K24A/S25F/Q27G/V29H/K36Q/W56N/S62E | -0.30 / -0.40 / -0.55 / -0.59 / -0.53 / -0.33 | 1 of 18 (2.35)
S25L/L30E/Y31G/S33E/R34W/W56H/T59V/S62V | 0.52 / 0.46 / 1.02 / 0.19 / 0.37 / 0.70 | 2 of 18 (3.33)
S25M/V29F/Y31M/S33M/K36G/W56N | 0.39 / 0.04 / 0.08 / 0.02 / 0.03 / 0.79 | 1 of 18 (2.74)
S25I/S26D/Q27I/V29E/Y31G/K36W/W56N/S62E | 0.22 / 0.27 / -0.06 / -0.02 / 0.02 / 0.31 | 2 of 18 (3.38)
S25L/S26W/Q27E/Y31G/N35M/K36Q/S38A/W56S | 0.39 / 0.04 / 0.50 / 0.24 / 0.27 / 0.34 | 1 of 18 (2.56)
S25F/S28L/V29W/L30M/S33Q/W56Q/T59Q/S62D | 0.15 / -0.32 / -0.02 / -0.25 / 0.76 / 0.16 | 0 of 18
S25M/S28E/L30D/Y31L/K36V/W56M/T59C/S62D | 0.59 / 0.71 / 1.34 / 0.42 / 0.59 / 0.77 | 0 of 18
S25L/L30E/Y31V/E32L/W56N | 0.24 / -0.07 / 0.02 / -0.22 / -0.04 / 0.21 | 1 of 18 (2.54)
S25L/S26D/S28W/L30E/E32G/W56S/T59Q/E61F | 0.38 / 0.56 / 0.51 / 0.49 / 0.69 / 0.58 | 2 of 18 (4.00)
K24L/S25L/S26Q/V29E/L30G/W56D/S62E/Q96A | 0.20 / 0.14 / 0.19 / 0.09 / 0.00 / 0.10 | 0 of 18
S25V/S28M/V29Q/L30D/S38N/W56N/E61M | 0.11 / 0.18 / -0.26 / -0.19 / -0.14 / 0.31 | 0 of 18
S25V/Q27P/V29W/Y31G/S33D/K36C/S38A/W56Q/T59Q | 0.66 / 0.94 / 0.85 / 0.64 / 0.63 / 1.31 | 0 of 18
S25L/V29M/L30E/K36S/N37K/W56H/E61V | 0.31 / -0.04 / -0.22 / -0.31 / 0.06 / 0.06 | 1 of 18 (3.05)
S25L/V29D/L30E/N35Q/W56N/E61M/S62Q/S103L | 0.21 / 0.12 / 0.12 / 0.00 / 0.46 / 0.13 | 0 of 18
S25Q/S26Q/L30G/Y31G/E32M/S33Q/W56E/S62M | 0.12 / 0.12 / 0.70 / 0.03 / 0.11 / 0.20 | 0 of 18
S25I/S28W/V29K/Y31G/W56D/T59Q | 0.11 / -0.27 / -0.04 / -0.25 / -0.13 / -0.04 | 1 of 18 (2.23)
S25L/S26M/V29P/L30E/K36A/W56N/T59Q/S62E | 0.26 / 0.15 / 0.02 / 0.19 / 0.19 / 0.29 | 0 of 18

For reference, 3 entries of the list once more:

changes,"log10 Kd, replicates",empty controls
K24L/S25L/S26Q/V29E/L30G/W56D/S62E/Q96A,0.20 / 0.14 / 0.19 / 0.09 / 0.00 / 0.10,0 of 18
S25A/Q27N/V29N/K36G/W56N/E61L/S62H,0.21 / 0.22 / 0.18 / 0.17 / 0.58 / 0.64,1 of 18 (2.48)
S25M/S26Q/Q27G/Y31M/E32L/K36C/W56Q/S62Q,0.80 / 0.43 / 0.66 / 0.60 / 0.70 / 0.74,0 of 18

As a blank, each scFv also met three strains without target: over all light chain designs, 4% of these pairings were detected, typically at 2.64 and seldom below 1.59. For each scFv, signals with the empty controls are counted beside the result, with their mean in brackets. In the paper, a design with two or fewer of six values counts as a poor binder.